SR-BI uptake up: SR-BI HDL lipid transfer activation. CHO ldlA[mSR-BI] cells, DiI-HDL uptake fluorescence, 3 h; 100 = double the neutral-control signal. activation, % at 12.5 µM. 0.096% of 320,000 active. AID 504775;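 active = mean replicate activation of at least 60% and every replicate at or above 60%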
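material = CHO ldlA[mSR-BI] cells | medium = Ham's F12 with 0.5% BSA, HEPES 25 mM, pH 7.4 | reagent = fluorescent DiI-HDL, 10 µg/mL final | compound dosing = single-point compound dose | incubation = 3 h, 37 °C | measured by = bottom-read fluorescence, 550/595 nm | measure = HDL uptake via cellular fluorescence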
UUG fidelity: modulators of yeast start codon fidelity, primary screen, whole organism, S. cerevisiae, single point, plate reader; S. cerevisiae UUG-firefly luciferase reporter, luminescence/redox ratio; activity score, % at 18.7 µM; actives 0.13% (n = 350,000);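 active means replicate mean at a twofold rise or more, about +100% in these data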;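 further: firefly luciferase made from a UUG start codon reports start codon fidelity; reporter light over untreated wells divided by growth signal over untreated wells; some hits fall short of that in this replicate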
GSIS activator: primary screen for activators of insulin secretion dependent on glucose, INS-1E cells, GLuc reporter luminescence; INS-1E GLuc reporter insulin secretion, 2-3 h; activation, % at 16.6 µM; 0.61% of 370,000 active;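 active = lowest replicate activation of at least 40%, so every replicate reaches that level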
SR-BI HDL uptake: inhibitors of mouse SR-BI mediated HDL lipid uptake. Q61009. AID 488896. inhibition, % at 12.5 µM. ldlA[mSR-BI] CHO cells, DiI-HDL uptake fluorescence, 3 h. 0.96% of 320,000 active;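 active = mean replicate inhibition of at least 70% and a set share of replicates each scoring 70 or more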
A number is an active result; – = inactive; · = no result given. Most compounds without a hit are left out; they make up all but 1.3% or so of the library.

SMILES	SR-BI uptake up	UUG fidelity	GSIS activator	SR-BI HDL uptake
Cc1noc(C)c1NC(=O)Nc1ccc2c(c1)C(=O)N([C@@H](C)CO)C[C@H](C)[C@H](CN(C)C(=O)C1CCCCC1)OCCCC[C@@H](C)O2	·	–	–	·
O=C(Nc1ccccc1F)N1CCCCN2[C@H](CO)[C@H](c3ccc(/C=C/c4ccccc4)cc3)[C@H]2C1	·	–	–	·
CCC(=O)N1C[C@@H](C)[C@@H](OC)CN(C)C(=O)c2cc(NC(=O)CC(F)(F)F)ccc2OC[C@@H]1C	·	·	–	·
COc1ccc(NC(=O)Nc2ccc3c(c2)CC(=O)N([C@@H](C)CO)C[C@@H](C)[C@@H](CN(C)C(=O)Nc2c(C)noc2C)O3)cc1	·	–	–	·
CCC1CCCCN1C(=O)COC(=O)CSc1ccc(C(N)=O)cc1[N+](=O)[O-] (stereo unspecified)	–	–	–	–
CC1CCCCN1C(=O)COC(=O)CSc1ccc(C(N)=O)cc1[N+](=O)[O-] (stereo unspecified)	–	–	45.3	–
O=C1C=CC(=O)N1CCCCCCN1C(=O)C=CC1=O	·	·	202.1	·
O=C(O)CN1C(=O)C=CC1=O	·	–	–	·
O=C(c1ccco1)N1CCN(C(=O)C2CCCc3c2[nH]c2ccc(Cl)cc32)CC1 (stereo unspecified)	–	·	·	82.9
COc1ccc(NS(=O)(=O)c2cccc(C(=O)N/N=C/c3ccccc3OC)c2)cc1	–	–	–	82.3
COc1ccc(NS(=O)(=O)c2cccc(C(=O)NNC(=O)c3cc(C)oc3C)c2)cc1	–	·	–	–
O=C(N/N=C/c1cn(-c2ccccc2)nc1-c1ccc(F)cc1)c1ccc(Br)o1	–	–	·	87.0
CCN(CC)c1ccc(/C=N/NC(=O)c2cccc(S(=O)(=O)Nc3ccccc3OC)c2)c(O)c1	–	·	–	132.0
COc1ccc(NS(=O)(=O)c2cccc(C(=O)NNC(=O)c3ccccc3O)c2)cc1	–	·	–	72.3
C[C@@H]1CCCCO[C@@H](CN(C)S(=O)(=O)c2cn(C)cn2)[C@H](C)CN([C@H](C)CO)C(=O)c2cc(NC(=O)CCC(F)(F)F)ccc2O1	·	–	–	·
CC(=O)Nc1cccc2c1O[C@@H](CN(C)S(C)(=O)=O)[C@@H](C)CN(C)C2=O	·	·	–	·
CN1C(=O)c2cc(NS(C)(=O)=O)ccc2OC[C@@H]2O[C@@H](CC(=O)N3CCOCC3)CC[C@@H]21	·	·	–	·
COc1ccc(NS(=O)(=O)c2cccc(C(=O)N/N=C/c3cn(-c4ccccc4)nc3-c3ccccc3)c2)cc1	–	–	–	96.5
Cc1cc(N/N=C/c2ccc(N(C)C)cc2)nc(NCc2ccccc2)n1	–	–	–	80.5
CCCNC(=O)N(C)C[C@H]1Oc2cc(-c3ccccc3F)ccc2S(=O)(=O)N([C@@H](C)CO)C[C@H]1C	·	–	–	·
O=C(Cn1c(COc2ccccc2)nc2ccccc21)Nc1cc(Cl)cc(Cl)c1	–	–	67.7	–
O=C(Cn1c(COc2ccccc2)nc2ccccc21)Nc1cc(Cl)ccc1Cl	–	·	·	–
C=CCn1c(SCC(=O)NNC(=O)Nc2ccc(C)cc2)nnc1-c1ccccc1	–	–	–	–
C=CCn1c(SCC(=O)Nc2ccc(-c3nc4ccc(C)cc4s3)cc2)nnc1-c1ccccc1	–	–	121.7	–
Cc1ccc2nc(-c3ccc(NC(=O)COC(=O)c4ccco4)cc3)sc2c1	–	·	91.4	–
SMILES	SR-BI uptake up	UUG fidelity	GSIS activator	SR-BI HDL uptake
CC1CCc2c(nc3ncnn3c2N2CCN(c3ccccc3F)CC2)C1 (stereo unspecified)	–	–	·	–
CC1CCc2c(nc3ncnn3c2NCCc2ccccc2F)C1 (stereo unspecified)	–	·	–	73.3
CO[C@H]1CN(C)C(=O)c2ccc(NC(=O)c3ccc(F)cc3)cc2OC[C@H](C)N(C(=O)CC2CC2)C[C@H]1C	·	·	–	·
CCOC(=O)C1=C(COC(=O)c2cccs2)NC(=O)NC1C (stereo unspecified)	–	–	58.9	–
COc1ccc2c3c(n(C)c2c1)[C@H](CO)N(Cc1ccccc1Cl)CC31CCN(C(C)=O)CC1	·	·	–	·
N#C/C(=N\Nc1ccccc1F)c1nc(-c2ccccc2)cs1	–	·	–	71.3
N#C/C(=C(/O)CCl)c1nc(-c2ccccc2)cs1	·	–	–	·
Cc1noc(C)c1NC(=O)Nc1ccc2c(c1)C(=O)N(C)[C@@H]1CC[C@@H](CC(=O)NCc3ccc(Cl)cc3)O[C@H]1CO2	·	·	–	·
CCCn1c(Sc2nnnn2-c2ccccc2)n[nH]c1=O	79.6	–	·	–
CCCn1c(SCC(=O)NC(C)c2ccccc2)n[nH]c1=O (stereo unspecified)	–	–	–	–
C[C@H](CO)N1C[C@H](C)[C@H](CN(C)S(=O)(=O)c2cccs2)OCCCC[C@H](C)Oc2ccc(NC(=O)Cc3ccccc3)cc2C1=O	·	–	–	·
CCC(=O)Nc1ccc2c(c1)C(=O)N(C)C[C@H](OC)[C@H](C)CN(C(=O)CN(C)C)[C@@H](C)CO2	·	·	–	·
C/C(CC(=O)Nc1ccc(Cl)c(C(F)(F)F)c1)=N\NC(=O)c1ccccc1O	–	·	–	–
C/C(CC(=O)Nc1ccc(Cl)c(C(F)(F)F)c1)=N\NC(N)=S	–	·	–	80.1
COc1cccc(NC(=O)C(=O)c2cn(CC(=O)N3CCCC3)c3ccccc23)c1	–	–	–	75.0
COc1ccc(NC(=O)C(=O)c2cn(CC(=O)N3CCCC3)c3ccccc23)cc1OC	–	–	–	79.8
COc1ccc(OC)c(NC(=O)C(=O)c2cn(CC(=O)N3CCCC3)c3ccccc23)c1	–	–	·	80.5
COc1ccccc1CNC(=O)C(=O)c1cn(CC(=O)N2CCCC2)c2ccccc12	·	–	–	77.8
C[C@H]1CN(C)C(=O)c2cc([N+](=O)[O-])ccc2O[C@@H]1CN(C)C(=O)OC(C)(C)C	·	·	–	·
CC=Cc1ccc2n(c1=O)C[C@H]1[C@H](CO)[C@@H](C(=O)NCc3ccccc3)N(CC)[C@@H]21 (mixture of isomers)	·	·	–	·
COc1ccc2c(=O)c3c(=O)n(Cc4ccco4)c(-c4ccccc4)nc3oc2c1	–	–	·	–
COc1ccc2c(=O)c3c(=O)n(Cc4ccco4)c(-c4cc(OC)c(OC)c(OC)c4)nc3oc2c1	–	–	·	73.9
COCCn1c(-c2ccccc2)nc2oc3cc(OC)ccc3c(=O)c2c1=O	–	–	–	–
COc1ccc2c(=O)c3c(=O)n(-c4ccccc4)c(-c4ccc(C)cc4)nc3oc2c1	–	·	–	91.6
COC(=O)c1ccc(C2N=C(c3cccs3)CC(c3ccccc3O)N2)cc1 (stereo unspecified)	–	–	–	74.8
O=C(c1ccccc1)N1N=C(c2cccs2)CC1c1ccccc1O (stereo unspecified)	–	–	–	–
Cc1ccc(-n2nc3c(c2NC(=O)C2CC2)CS(=O)(=O)C3)cc1C	–	–	–	–
Cc1ccc(-n2nc3c(c2NC(=O)C2CC2)CS(=O)(=O)C3)cc1	–	–	56.5	–
CO[C@H]1CN(C)C(=O)c2cc(NC(=O)C3CCCC3)ccc2OC[C@H](C)N(C(C)=O)C[C@@H]1C	·	·	–	·
COc1ccc(CC(=O)NNS(=O)(=O)c2ccc([N+](=O)[O-])cc2)cc1OC	61.4	–	–	–
